Consider 1 substance from paper PMC8524854, “A novel dual-prodrug carried by cyclodextrin inclusion complex for the targeting treatment of colon cancer” (Journal of Nanobiotechnology, 2021).

One series concerns Kunming mice. In kind it is in vivo. The following applies: 15th day after single oral gavage. As for the experimental part: All animals were given a single oral gavage of 0.2 mL of different dosage forms, and their body weight was monitored every day. Meanwhile, the toxicity and mortality of all animals were observed every day. The conventional changes such as the cases of the diet, urine, and feces were recorded. On the 15th day after treatment, the blood of each group was collected from the heart and centrifuged at 1,000 × g for 10 min to collect serum. An automated biochemical analyzer was used to detect serum alanine aminotransferase (ALT), aspartate aminotransferase (AST), blood urea nitrogen (BUN), and creatinine (Cr). Meanwhile, the heart, liver, lung, and kidney were quickly excised, washed with normal saline, and weighed. The visceral index is estimated according to the following formula as Viscera Index (%) = Viscera Weight / Body Weight × 100. And then, all the tissues were fixed with 10% formalin and stained with hematoxylin & eosin (H&E) for pathological analysis.

Series [1] can be described thus: Pharmacokinetics: butyric acid in plasma after gavage. The format is in vivo, SW620 tumor-bearing BALB/C nude mice. The note with it: gavage 0.366 g/kg. As for the experimental part: SW620 tumor-bearing mice were randomly divided into 3 groups (n = 5). BBA, BBA/CM-β-CD, and BBA/FA-PEG-CM-β-CD were administered by gavage at a dose of 0.366 g/kg. The blood was collected respectively from the heart at 0.25, 0.5, 1, 2, 3, 4, 6, 8, 12, 24, 36, 48, and 72 h after administration. The whole blood was quickly centrifuged at 2000 × g for 5 min, and the upper plasma was precisely aspirated. Then 0.35 mL of methanol was added, vortexed for 2 min, and centrifuged at 3350 × g for 15 min. The supernatant was used to detect butyric acid by HPLC [45]. The pharmacokinetic parameters were calculated by non-compartmental analysis using Drug Analysis System (DAS 2.1.1, Shanghai, China).

“2-butyryl oxy-5-butylaminyl benzoic acid [BBA]”: in the series on Kunming mice, the Heart index is given as 0.87 ± 0.08%, the Kidney index amounted to 2.55 ± 0.62%, the Liver index came out at 7.05 ± 0.58% and the Lung index is 0.80 ± 0.21%. Besides, the T1/2 in series [1] is on record as 3.396 ± 0.791 h.
